The values below are quoted from earlier work in patent US9120744B2, “Plasminogen activator inhibitor-1 inhibitors and methods of use thereof to modulate lipid metabolism” (THE REGENTS OF THE UNIVERSITY OF MICHIGAN, priority 2007, dated 2015).

Chains of the proteins cited; added tags and fusions are not shown. Residues count along the entry.
UniProt P05121, 24-402, species assumed: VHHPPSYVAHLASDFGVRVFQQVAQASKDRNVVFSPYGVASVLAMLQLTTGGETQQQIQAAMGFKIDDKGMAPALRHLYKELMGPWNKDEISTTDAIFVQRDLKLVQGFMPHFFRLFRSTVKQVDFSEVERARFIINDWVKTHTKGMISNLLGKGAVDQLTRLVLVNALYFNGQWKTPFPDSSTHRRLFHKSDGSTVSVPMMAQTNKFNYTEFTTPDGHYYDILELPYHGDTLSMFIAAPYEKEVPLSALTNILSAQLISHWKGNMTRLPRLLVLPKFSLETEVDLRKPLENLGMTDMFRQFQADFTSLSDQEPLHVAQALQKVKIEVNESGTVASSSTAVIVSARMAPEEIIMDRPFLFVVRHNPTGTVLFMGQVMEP

Structures are written as SMILES.

The data set deals with PAI-1 (Homo sapiens (Human), UniProt P05121). To be noted: read-out: affinity for PAI-1; cited from earlier work.

In the case of `O=C(O)C(=O)c1cn(Cc2ccccc2)c2ccc(-c3ccc(OC(F)(F)F)cc3)cc12` [PAI-039, tiplaxtinin], the Kd is 10 to 20 µM.
